Converted amounts (≈) assume the structure as drawn.
Tests used:
[1] = Solubility stated in text; type: physicochemical; details: read-out: solubility of melittin
[2] = system: tissue-engineered dhBMECs microvessels; assay: BBB opening in tissue-engineered BBB microvessels (500 kDa dextran leakage); type: cell-based, human; details: dose = concentration x perfusion time
Description: Three-dimensional blood-brain barrier microvessels were fabricated as previously reported (FIGS. 10A and 10B) [Linville, R. M., et al., Biomaterials, 2019. 190-191: p. 24-37] 150 μm diameter and 1 cm long channels were patterned in 7 mg mL^−1 type I collagen (Corning) using nitinol wire (Malin Co.) housed within polydimethylsiloxane (PDMS; Dow Corning). Channels were cross-linked by incubation in 20 mM genipin (Wako Biosciences) for 2 hours to increase cell adhesion. 2dhBMECs were suspended in BBB induction medium at a concentration of 5×10^6 cells mL^−1 and seeded into channels. Microvessels were perfused using BBB induction medium for 24 hours and then switched to BBB maintenance medium. […]
Live-cell imaging was conducted to study dynamic changes in in vitro BBB permeability and microvessel structure. […] Phase contrast and fluorescence images were acquired every two minutes with the focal plane set to the microvessel midplane. […]
Image processing was performed using ImageJ (NIH) to quantify BBB opening (FIGS. 11A-11D). […] The permeability (cm s^−1) was calculated using P=(r/2)(1/ΔI)(dI/dt), where r is the vessel radius, ΔI is the increase in fluorescence intensity upon perfusion of the fluorophore, and (dI/dt) is the rate of increase in fluorescence intensity as solute exits into the gel. […]

SMILES: CC[C@H](C)[C@H](NC(=O)CN)C(=O)NCC(=O)N[C@@H](C)C(=O)N[C@H](C(=O)N[C@@H](CC(C)C)C(=O)N[C@@H](CCCCN)C(=O)N[C@H](C(=O)N[C@@H](CC(C)C)C(=O)N[C@H](C(=O)N[C@H](C(=O)NCC(=O)N[C@@H](CC(C)C)C(=O)N1CCC[C@H]1C(=O)N[C@@H](C)C(=O)N[C@@H](CC(C)C)C(=O)N[C@H](C(=O)N[C@@H](CO)C(=O)N[C@@H](Cc1c[nH]c2ccccc12)C(=O)N[C@H](C(=O)N[C@@H](CCCCN)C(=O)N[C@@H](CCCNC(=N)N)C(=O)N[C@@H](CCCCN)C(=O)N[C@@H](CCCNC(=N)N)C(=O)N[C@@H](CCC(N)=O)C(=O)N[C@@H](CCC(N)=O)C(N)=O)[C@@H](C)CC)[C@@H](C)CC)[C@@H](C)O)[C@@H](C)O)C(C)C)C(C)C [melittin]
- solubility [1]: ~350 µM (≈ 996 µg/mL)
- threshold dose for inducing focal leaks (opening) [2]: 20 µM·min

From patent US20240009269A1 (priority 2020, published 2024)
